Experimental data reported in patent US10072025B2, “Ethyl N-boc piperidinyl pyrazolo pyridones as Janus kinase inhibitors” (Merck Sharp & Dohme Corp., priority 2014, dated 2018).
Read-outs that look alike come from different tables or passages of the source. Each block holds one molecule with its values, some of them ahead of it.

Chains of the proteins cited; added tags and fusions are not shown. Residues count along the entry.
UniProt P23458, 875-1153: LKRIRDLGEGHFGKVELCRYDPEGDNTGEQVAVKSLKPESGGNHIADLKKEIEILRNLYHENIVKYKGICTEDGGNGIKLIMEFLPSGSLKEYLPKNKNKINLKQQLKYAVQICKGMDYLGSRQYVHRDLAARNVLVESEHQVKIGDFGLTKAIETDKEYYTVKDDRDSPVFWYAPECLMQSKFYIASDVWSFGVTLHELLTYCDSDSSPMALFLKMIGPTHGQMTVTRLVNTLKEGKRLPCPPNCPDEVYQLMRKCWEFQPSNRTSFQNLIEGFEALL
UniProt O60674, 849-1124: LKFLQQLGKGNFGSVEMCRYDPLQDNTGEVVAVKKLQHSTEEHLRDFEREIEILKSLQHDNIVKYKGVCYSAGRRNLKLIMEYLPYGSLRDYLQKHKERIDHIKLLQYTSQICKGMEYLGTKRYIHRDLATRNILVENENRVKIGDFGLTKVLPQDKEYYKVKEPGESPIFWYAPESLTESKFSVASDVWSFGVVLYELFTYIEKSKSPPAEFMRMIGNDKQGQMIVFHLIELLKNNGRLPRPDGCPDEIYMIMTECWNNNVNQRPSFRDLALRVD

Assays:
JAK1 = JAK1 (Homo sapiens (Human), UniProt P23458); experiment: Jak Biochemical HTRF Assay (JAK1); conditions: recombinant purified GST-tagged catalytic domain, [ATP] 31.8 μM, [E] 1.405 nM
Method: (§1) Jak Biochemical HTRF Assay Protocol
(§2) The ability of compounds to inhibit the activity of JAK1, JAK2, JAK3, and Tyk2 was measured using a recombinant purified GST-tagged catalytic domain for each enzyme (Invitrogen JAK1 #M4290, JAK2 #M4290, JAK3 #M4290, Tyk2 #M4290) in an HTRF format biochemical assay. […] The basic assay protocol is as follows: First, 250 nL of diluted compounds in DMSO were dispensed into the wells of a dry 384-well Black plate (Greiner #781076) using a Labcyte Echo 555 acoustic dispenser. Subsequent reagent additions employed an Agilent Bravo. Next, 18 μL of 1.11× enzyme and 1.11× substrate in 1× assay buffer (Invitrogen kinase buffer # PV3189, 2 mM DTT, 0.05% BSA) were added to the wells and shaken and then preincubated for 30 minutes at room temperature to allow compound binding to equilibrate. After equilibration, 2 μL of 10×ATP in 1× assay buffer was added to initiate the kinase reaction and the plates were shaken and then incubated at room temperature for 120 minutes. At the end of the incubation, 20 μL of 2× stop buffer (streptavidin-Dylight 650 (Thermo #84547B/100 mL), Eu-tagged pY20 antibody (Perkin Elmer #AD0067), EDTA, HEPES, and Triton) was added to quench the reaction. Plates were shaken and centrifuged and then incubated 60 minutes at room temperature and then read on a Perkin Elmer Envision (Xex=337 nm, λem=665 and 615 nm, TRF delay time=20 μs). HTRF signal=10,000*665 nm reading/615 nm reading. After normalization to untreated controls, the percent inhibition of the HTRF signal at each compound concentration was calculated. The plot of percent inhibition versus the log of compound concentration was fit with a 4-parameter dose response equation to calculate IC50 values.

JAK2 = JAK2 (Homo sapiens (Human), UniProt O60674); experiment: Jak Biochemical HTRF Assay (JAK2)
Method: as §1, §2

[1] = recombinant purified GST-tagged catalytic domain, HTRF, [ATP] 8.5 μM, [E] 0.052 nM

Structure (SMILES): CCC1(n2nc(Nc3ccc([C@@H](NC(C)(C)C)C(F)(F)F)cc3)c3c(=O)[nH]ccc32)CCN(C(=O)OC(C)(C)C)CC1 (single isomer, unassigned) [Example 2-36, (R or S)-tert-butyl 4-(3-(4-(1-(tert-butylamino)-2,2,2-trifluoroethyl)phenyl-amino)-4-oxo-4,5-dihydropyrazolo[4,3-c]pyridin-1-yl)-4-ethylpiperidine-1-carboxylate]
IC50 (JAK1): 8.43 nM | IC50 (JAK2; [1]): 13 nM

Structure (SMILES): CCC1(n2nc(Nc3ccc(C(=O)N4[C@H](C)COC[C@H]4C)c(C)c3)c3c(=O)[nH]ccc32)CCN(C(=O)OC(C)(C)C)CC1 (single isomer, unassigned) [Example 2-20, tert-butyl 4-(3-(4-((3R,5R or 3S,5S)-3,5-dimethylmorpholine-4-carbonyl)-3-methylphenylamino)-4-oxo-4,5-dihydropyrazolo[4,3-c]pyridin-1-yl)-4-ethylpiperidine-1-carboxylate]
IC50 (JAK2; [1]): 0.84 nM

Structure (SMILES): CCC1(n2nc(Nc3ccc(C(=O)N4CCOC(C)C4C)c(C)c3)c3c(=O)[nH]ccc32)CCN(C(=O)OC(C)(C)C)CC1 (single isomer, unassigned) [Example 3-14, tert-butyl 4-[3-({4-[(2,3-dimethylmorpholin-4-yl)carbonyl]-3-methylphenyl}amino)-4-oxo-4,5-dihydro-1H-pyrazolo[4,3-c]pyridin-1-yl]-4-ethylpiperidine-1-carboxylate]
IC50 (JAK1): 2.88 nM | IC50 (JAK2; [1]): 1.76 nM

Structure (SMILES): CCC1(n2nc(Nc3ccc(S(=O)(=O)N4CCC[C@H]4C)cc3)c3c(=O)[nH]ccc32)CCN(C(=O)OC(C)(C)C)CC1 (single isomer, unassigned) [Example 2-39, (R or S)-tert-butyl 4-ethyl-4-(3-(4-(2-methylpyrrolidin-1-ylsulfonyl)phenylamino)-4-oxo-4,5-dihydropyrazolo[4,3-c]pyridin-1-yl) piperidine-1-carboxylate]
IC50 (JAK2; [1]): 2.79 nM

Structure (SMILES): CCC1(n2nc(Nc3ccc(C(=O)N4CCOC(C)C4C)c(C)c3)c3c(=O)[nH]ccc32)CCN(C(=O)OC(C)(C)C)CC1 (single isomer, unassigned) [Example 3-16, tert-butyl 4-[3-({4-[(2,3-dimethylmorpholin-4-yl)carbonyl]-3-methylphenyl}amino)-4-oxo-4,5-dihydro-1H-pyrazolo[4,3-c]pyridin-1-yl]-4-ethylpiperidine-1-carboxylate]
IC50 (JAK1): 1.87 nM | IC50 (JAK2; [1]): 1.07 nM

Structure (SMILES): CCC1(n2nc(Nc3ccc(C(=O)N4[C@@H](C)COC[C@@H]4C)c(C)c3)c3c(=O)[nH]ccc32)CCN(C(=O)OC(C)(C)C)CC1 (single isomer, unassigned) [Example 2-19, tert-butyl 4-(3-(4-((3S,5S or 3R,5R)-3,5-dimethylmorpholine-4-carbonyl)-3-methylphenylamino)-4-oxo-4,5-dihydropyrazolo[4,3-c]pyridin-1-yl)-4-ethylpiperidine-1-carboxylate]
IC50 (JAK2; [1]): 0.65 nM

Structure (SMILES): CCC1(n2nc(Nc3ccc([C@H](NC(C)(C)C)C(F)(F)F)cc3)c3c(=O)[nH]ccc32)CCN(C(=O)OC(C)(C)C)CC1 (single isomer, unassigned) [Example 2-37, (S or R)-tert-butyl 4-(3-(4-(1-(tert-butylamino)-2,2,2-trifluoroethyl)phenylamino)-4-oxo-4,5-dihydropyrazolo [4,3-c]pyridin-1-yl)-4-ethylpiperidine-1-carboxylate]
IC50 (JAK1): 6.59 nM | IC50 (JAK2; [1]): 7.69 nM

Structure (SMILES): CCC1(n2nc(Nc3ccc(C(=O)N4CCOC(C)C4C)c(C)c3)c3c(=O)[nH]ccc32)CCN(C(=O)OC(C)(C)C)CC1 (single isomer, unassigned) [Example 3-15, tert-butyl 4-[3-({4-[(2,3-dimethylmorpholin-4-yl)carbonyl]-3-methylphenyl}amino)-4-oxo-4,5-dihydro-1H-pyrazolo[4,3-c]pyridin-1-yl]-4-ethylpiperidine-1-carboxylate]
IC50 (JAK1): 3.53 nM | IC50 (JAK2; [1]): 2.1 nM

Structure (SMILES): CCC1(n2nc(Nc3ccc(C(=O)N4[C@H](C)COC[C@@H]4C)c(C)c3)c3c(=O)[nH]ccc32)CCN(C(=O)OC(C)(C)C)CC1 [Example 2-18, tert-butyl 4-(3-(4-((3S,5R)-3,5-dimethylmorpholine-4-carbonyl)-3-methylphenylamino)-4-oxo-2,3,4,5-tetrahydropyrazolo[4,3-c]pyridin-1-yl)-4-ethylpiperidine-1-carboxylate]
IC50 (JAK2): 0.57 nM

Structure (SMILES): CCC1(n2nc(Nc3ccc([C@]4(C(F)(F)F)CCCCN4)cc3)c3c(=O)[nH]ccc32)CCN(C(=O)OC(C)(C)C)CC1 (single isomer, unassigned) [Example 2-32, (S or R)-tert-butyl 4-ethyl-4-(4-oxo-3-((4-(2-(trifluoromethyl)piperidin-2-yl)phenyl)amino)-4,5-dihydro-1H-pyrazolo[4,3-c]pyridin-1-yl) piperidine-1-carboxylate]
IC50 (JAK1): 2.19 nM | IC50 (JAK2; [1]): 2.21 nM

Structure (SMILES): CCC1(n2nc(Nc3ccc(C(=O)N4CCCOC(C)C4)c(C)c3)c3c(=O)[nH]ccc32)CCN(C(=O)OC(C)(C)C)CC1 (single isomer, unassigned) [Example 3-23, tert-butyl 4-ethyl-4-[3-({3R or 3S-methyl-4-[(2-methyl-1,4-oxazepan-4-yl)carbonyl]phenyl}amino)-4-oxo-4,5-dihydro-1H-pyrazolo [4,3-c]pyridin-1-yl] piperidine-1-carboxylate]
IC50 (JAK1): 1.14 nM

Second part, the molecule after the results:

IC50 (JAK1): 2.74 nM | IC50 (JAK2; [1]): 2.7 nM
Structure (SMILES): CCC1(n2nc(Nc3ccc([C@@]4(C(F)(F)F)CCCCN4)cc3)c3c(=O)[nH]ccc32)CCN(C(=O)OC(C)(C)C)CC1 (single isomer, unassigned) [Example 2-31, (R or S)-tert-butyl 4-ethyl-4-(4-oxo-3-((4-(2-(trifluoromethyl)piperidin-2-yl)phenyl)amino)-4,5-dihydro-1H-pyrazolo[4,3-c]pyridin-1-yl) piperidine-1-carboxylate]

IC50 (JAK2; [1]): 2.78 nM
Structure (SMILES): CCC1(n2nc(Nc3ccc(S(=O)(=O)N4CCC[C@@H]4C)cc3)c3c(=O)[nH]ccc32)CCN(C(=O)OC(C)(C)C)CC1 (single isomer, unassigned) [Example 2-38, (S or R)-tert-butyl 4-ethyl-4-(3-(4-(2-methylpyrrolidin-1-ylsulfonyl)phenylamino)-4-oxo-4,5-dihydropyrazolo[4,3-c]pyridin-1-yl) piperidine-1-carboxylate]

IC50 (JAK1): 13.9 nM | IC50 (JAK2; [1]): 16.9 nM
Structure (SMILES): CCC1(n2nc(Nc3ccc([C@@]4(C(F)(F)F)CCCCCN4)cc3)c3c(=O)[nH]ccc32)CCN(C(=O)OC(C)(C)C)CC1 (single isomer, unassigned) [Example 2-10, (R or S)-tert-butyl 4-ethyl-4-(4-oxo-3-((4-(2-(trifluoromethyl)azepan-2-yl)phenyl)amino)-4,5-dihydro-1H-pyrazolo[4,3-c]pyridin-1-yl) piperidine-1-carboxylate]

IC50 (JAK1): 1.8 nM | IC50 (JAK2; [1]): 1.04 nM
Structure (SMILES): CCC1(n2nc(Nc3ccc(C(=O)N4CCOC(C)C4C)c(C)c3)c3c(=O)[nH]ccc32)CCN(C(=O)OC(C)(C)C)CC1 (single isomer, unassigned) [Example 3-13, tert-butyl 4-[3-({4-[(2,3-dimethylmorpholin-4-yl)carbonyl]-3-methylphenyl}amino)-4-oxo-4,5-dihydro-1H-pyrazolo[4,3-c]pyridin-1-yl]-4-ethylpiperidine-1-carboxylate]

IC50 (JAK1): 1.3 nM
Structure (SMILES): CCC1(n2nc(Nc3ccc(C(=O)N4CCCOC(C)C4)c(C)c3)c3c(=O)[nH]ccc32)CCN(C(=O)OC(C)(C)C)CC1 (single isomer, unassigned) [Example 3-22, tert-butyl 4-ethyl-4-[3-({3R or 3S-methyl-4-[(2-methyl-1,4-oxazepan-4-yl)carbonyl]phenyl}amino)-4-oxo-4,5-dihydro-1H-pyrazolo [4,3-c]pyridin-1-yl] piperidine-1-carboxylate]

IC50 (JAK1): 8.85 nM | IC50 (JAK2; [1]): 10.1 nM
Structure (SMILES): CCC1(n2nc(Nc3ccc([C@]4(C(F)(F)F)CCCCCN4)cc3)c3c(=O)[nH]ccc32)CCN(C(=O)OC(C)(C)C)CC1 (single isomer, unassigned) [Example 2-16, (S or R)-tert-butyl-4-ethyl-4-(4-oxo-3-((4-(2-(trifluoromethyl)azepan-2-yl)phenyl)amino)-4,5-dihydro-1H-pyrazolo[4,3-c]pyridin-1-yl) piperidine-1-carboxylate]
